According to article PMC3446921, “Enhanced Solubilisation of Six PAHs by Three Synthetic Cyclodextrins for Remediation Applications: Molecular Modelling of the Inclusion Complexes” (PLoS ONE, 2012):

Assay: Phase solubility studies: comparison of the six PAHs across the three CDs
Conditions: reached with 0.1 M of the CD

With hydroxypropyl-γ-CD [HP-γ-CD] the “Decreasing order of PAHs apparent solubility” value was “ACE>PHE>FLU>FLT>PYR>ANT”.
